Experimental data taken from patent US20130280318A1, “Tissue Scaffolds for Controlled Release of Active Agents” (The Trustees of Columbia University in the City of New York, priority 2010, published 2013).

Settings: Circular Dichroism Spectroscopy of released TGF-β3

bovine serum albumin [BSA]
growth factor structure (ellipticity, degree of folding): effective in preserving the α-helical structure of TGF-β3
